## Apparent affinities of Ab-14 variants for a coronavirus HR2 peptide

Reference: Li et al. 2023, doi:10.1038/s41467-023-39022-2. File: FLAb, binding data.

Antigen: PDVDLGDISGINAS, a 14-residue peptide of the SARS-CoV-2 spike HR2 region.

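The starting antibody came from a phage panning campaign against this peptide. The variants were designed computationally from a first round of random CDR variants and then made and measured. Several design methods are mixed in this list. AlphaSeq pools MATa yeast showing the antibodies with MATalpha yeast showing the peptide. Mating (16 h, 30 °C) was followed by selection of diploids and sequencing of their barcodes. A regression on co-assayed BCL2-family reference pairs converts the normalised counts of each replicate to an apparent Kd. There are six technical replicates.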

Parent: Ab-14, a human scFv built as VH, three GGGGS repeats, VL. Only the CDRs of the heavy chain vary.
VH: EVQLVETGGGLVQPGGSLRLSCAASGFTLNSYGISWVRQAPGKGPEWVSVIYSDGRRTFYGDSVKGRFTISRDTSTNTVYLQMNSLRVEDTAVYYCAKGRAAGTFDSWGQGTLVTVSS
VL: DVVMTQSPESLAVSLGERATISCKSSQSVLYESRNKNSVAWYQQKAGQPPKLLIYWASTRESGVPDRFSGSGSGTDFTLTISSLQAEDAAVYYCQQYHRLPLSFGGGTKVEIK

Each variant is given by its three heavy chain CDRs, as the data file delimits them; those of the parent are GFTLNSYGIS, VIYSDGRRTFYGDSVK, GRAAGTFDS. Affinities are written as log10 Kd with Kd in nM; a lower number is a better binder. Averages over replicates are reported, and they cover detected replicates only. Where no diploid with the target was found in any replicate, the entry reads "not detected": below detection, most likely a poor binder, though not proof of it. The authors' rule: three or more of the six replicates give a measured affinity, fewer mean a poor binder.

| CDR-H1 | CDR-H2 | CDR-H3 | mean log10 Kd (nM) | seen in |
|---|---|---|---|---|
| GFTLNSYGIS | VIYSDGRRTFYGDSVK | GKAAGWFES | not detected | 0/6 |
| GFDLNEYGIS | VIYADGQRTAYIDSVK | GEVAGTFDV | -0.23 | 6/6 |
| GFDLNSYGIS | VIYSDGRRTFYGDSVK | SRYAGTFDS | not detected | 0/6 |
| GFTLNSYGIS | VIYSDGRRTFYQDSVK | GTLAGTFDS | 0.94 | 6/6 |
| GFDLNEYGIS | VIYADGRRTAYSDSVK | GHNAGTFDV | -0.26 | 6/6 |
| GFDLDEYGIS | VIYADGQRTAYTDSVK | GEVAGTFDL | -0.36 | 6/6 |
| GFSLNSYGIS | VIYSDGRRTFYGDRVK | GQAAGTFDL | 1.15 | 6/6 |
| GFTLNEYGIS | VIYSDGRRTFYSDSVK | GRAGGTFWS | not detected | 0/6 |
| GFTLNSYGIS | VIYSDGRRTFYGDSVK | GQLAGTFDT | 1.43 | 6/6 |
| LFTLNSYGIS | VIYSDGRRTFYGDSVK | RRAAGTFDS | not detected | 0/6 |
| GNTLNDYGIS | VIYSDGRRTFYIDSVK | GRAAGTFDS | 1.58 | 3/6 |
| GDDLNEVGIS | VIYADGVRNQYIQSVK | GHVGGTFDY | not detected | 0/6 |
| GFDLGEYGIS | VIYADGVRQSYVDKVK | GANGVFSLV | not detected | 0/6 |
| GFDLDEYGIS | VIYADGQRTAYADSVK | GNNAGTFDI | -0.90 | 6/6 |
| GFTLNSYGIS | VIYSDGVRTFYSDSVK | GREAGTFNS | 0.75 | 5/6 |
| GFQLDEYGIS | VIYADGRRTFYQDSVK | GEVAGTFDK | -0.35 | 6/6 |
| GNSLDEYGIS | VIYADGMRTAYTDAVK | GVGSNTLVD | not detected | 0/6 |
| GFDLNEYGIS | VIYADGKRTAYADSVK | GETAGTFDT | -0.67 | 6/6 |
| GFTLESYGIS | VIYSDGRRTFYGDSVK | GRAAGTFTQ | 0.76 | 6/6 |
| GFTLDSYGIS | VIYSDGRRTFYGDSVK | GRAAGTALQ | not detected | 0/6 |
| GFTLNFYGIS | VIYSDGRRTFYADSVK | GRAAGTFDS | 2.13 | 4/6 |
| GFTLDSYGIS | VIYSDGRRTFYGDSVK | GKAAGTFDS | -0.70 | 3/6 |

Second part, the sequence after the result:

| mean log10 Kd (nM) | seen in | CDR-H1 | CDR-H2 | CDR-H3 |
|---|---|---|---|---|
| not detected | 0/6 | GFMLNSYGIS | VIYSDGRRTFYGDSVK | GPAAGTFDS |
| 0.66 | 6/6 | GFTLNEYGIS | VIYSDGRRTFYNDSVK | GTEAGTFDS |
| 1.26 | 6/6 | GFTLEDYGIS | VIYSDGRRTFYGDSVK | GRAAGTFDS |
| -0.45 | 6/6 | GFDLNEYGIS | VIYADGVRTAYSDDVK | GEVAGTFDV |
| 0.89 | 6/6 | GFDLNSYGIS | VIYSDGRRTFYDDRVK | GKAAGTFDS |
| not detected | 0/6 | GFDIEEYGIS | VIYADGMRTVYSDSFK | SGRTVNIDV |
| 0.45 | 6/6 | GFDLNEYGIS | VIYADGVRTAYSDSVK | GNQAGTFDQ |
| not detected | 0/6 | GKSLDEYGIS | VIYADGSREAYSESFK | GQLAAIFML |
| not detected | 0/6 | GFTLNSYGIS | VIYSDGRRTFYGDSVK | GRAAVTFDS |
| 1.15 | 6/6 | GFDLNSYGIS | VIYSDGRRTFYGDSVK | GQTAGTFDQ |
| not detected | 0/6 | GFSLNSYGIS | VIYSDGRRTFYGDSVK | GRGTGTFDS |
| 2.29 | 1/6 | GKSLNSYGIS | VIYSDGRRTFYADAVK | GRTAGTFDS |
| -0.60 | 6/6 | GFDLDEYGIS | VIYADGRRTFYADSVK | GRVAGTFDQ |
| 1.66 | 6/6 | GFTLNSYGIS | VIYSDGRRTFYGDDVK | GSAAGTFDS |
| 0.89 | 5/6 | GFTLNSYGIS | VIYSDGRRTFYADNVK | GQLAGTFDS |
| 0.35 | 6/6 | GFTINSYGIS | VIYSDGRRTFYSDSVK | GHAAGTFDS |
| not detected | 0/6 | GFSLDEMGIS | VIYADGQRSFYQANVK | GVNSGTFFV |
| 3.37 | 3/6 | GFTLNSYGIS | VIYSDGRRTFYGDSVK | TNAAGTFDS |
| -0.87 | 6/6 | GFDLNEYGIS | VIYADGRRTAYVDSVK | GNQAGTFDV |
| 0.24 | 6/6 | GQSLDDYGIS | VIYADGQRKAYVDEVK | GYVAGTFDI |
| not detected | 0/6 | GFDINEYGIS | VIYADGRREAYAESVK | GFNQTGWGV |
| 1.18 | 6/6 | GFMLNQYGIS | VIYSDGRRTFYGDSVK | GRAAGTFDS |
| -0.65 | 6/6 | GFDLNEYGIS | VIYADGQRKAYADSVK | GNVAGTFDV |

Extract of 4 entries:

CDR-H1,CDR-H2,CDR-H3,mean log10 Kd (nM),seen in
GFSLNSYGIS,VIYSDGRRTFYGDRVK,GQAAGTFDL,1.15,6/6
GFMLNQYGIS,VIYSDGRRTFYGDSVK,GRAAGTFDS,1.18,6/6
GQSLDDYGIS,VIYADGQRKAYVDEVK,GYVAGTFDI,0.24,6/6
GKSLDEYGIS,VIYADGSREAYSESFK,GQLAAIFML,not detected,0/6

Of ten entries with the parent sequence, four were seen in most replicates (averages 0.34 to 2.37), three in one and three in none, so single entries are noisy. As a blank, each scFv also met three strains without target: over all heavy chain designs, 1% of these pairings were detected, typically at 2.08 and seldom below 0.84. Values of this round are not directly comparable with the first-round values of the same sequences.